The values below are quoted from earlier work in US20250333398A1, “MONOARYL AND HETARYL SUBSTITUTED INDAZOLES AND BENZIMIDAZOLES AS STING ANTAGONISTS AND THE USE THEREOF AS MEDICAMENT” (Boehringer Ingelheim International GmbH, priority 2024, published 2025).

SMILES strings stand for the structures.

The test system of one data set is THP1 cells. Particulars: read-out: cellular inhibitory activity, cGAMP stimulated INFb production in THP1 cells; cited from earlier work.
Another data set deals with HAQ STING variant. The conditions noted are these: cited from earlier work.

For `COc1nn(C2CC2)cc1-n1cc2c(-c3nc(-c4ccc(C(=O)N(C)C)cc4OC(F)(F)F)n(C)c3C3CC3)cccc2n1` [Example 15, 4-{5-cyclopropyl-4-[2-(1-cyclopropyl-3-methoxy-1H-pyrazol-4-yl)-2H-indazol-4-yl]-1-methyl-1H-imidazol-2-yl}-N,N-dimethyl-3-(trifluoromethoxy)benzamide], the IC50 with THP1 cells was 11 µM; with HAQ STING variant it was 0.041 µM.
